## Apparent affinities of Ab-14 variants for a coronavirus HR2 peptide

From the AlphaSeq antibody data of Li et al. 2023 (doi:10.1038/s41467-023-39022-2), copy in the FLAb collection.

The target is the same throughout: PDVDLGDISGINAS, from the HR2 region of SARS-CoV-2 spike.

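These sequences belong to a second round, designed from the earlier measurements on random variants of the parent. Group labels follow the data file (Ctrl: baseline library sampled from a position-specific scoring matrix, with some repeated check sequences; Rand: our label for a block that the file lists under HC and that is probably the random mutants of the ten best first-round binders; En: ensemble of fine-tuned language models; GP: Gaussian process model; HC: hill climbing; Gen: genetic algorithm; Gibbs: Gibbs sampling; a sequence that several methods proposed may carry one label only). The scFvs were displayed on barcoded MATa yeast, the peptide on MATalpha yeast. Pairs that bind mate more often; barcode pairs of the diploids are counted by sequencing. Each replicate has its own calibration line, from reference interactions of the BCL2 family. There are six technical replicates.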

The variants keep the heavy chain, the linker and the frameworks of Ab-14 (scFv order VH, the linker GGGGSGGGGSGGGGS, VL).
VH: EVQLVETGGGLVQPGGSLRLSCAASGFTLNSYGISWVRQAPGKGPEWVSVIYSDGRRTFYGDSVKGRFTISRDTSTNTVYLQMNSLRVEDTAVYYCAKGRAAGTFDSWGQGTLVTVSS
VL: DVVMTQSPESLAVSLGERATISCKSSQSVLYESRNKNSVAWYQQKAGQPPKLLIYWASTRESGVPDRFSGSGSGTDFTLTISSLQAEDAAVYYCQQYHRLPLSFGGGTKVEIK

Variants are written as CDR1, CDR2 and CDR3 of the light chain (limits as in the source). Parent: KSSQSVLYESRNKNSVA, WASTRES, QQYHRLPLS.
Numbers give log10(Kd / nM), so 0 is 1 nM and 3 is 1 µM. Smaller is tighter.
A mean of the replicates is given; it leaves out those without a signal.
A pair that was not seen in any replicate is written "no signal"; this usually means weak binding, but a binder can also be missed.
Values of this round are not directly comparable with the first-round values of the same sequences.
The authors' rule: three or more of the six replicates give a measured affinity, fewer mean a poor binder.
Of ten entries with the parent sequence, four were seen in most replicates (averages 0.34 to 2.37), three in one and three in none, so single entries are noisy.
Background: pairings of all light chain designs with three empty control strains gave a value in 4% of cases (median 2.64, 5th percentile 1.59). Values in that range, when seen in few replicates, are hard to tell from nonspecific mating.

For KSSISWLGESRNKNSVA | EASTRES | QQYHRLPLS [GP_HC], the assay gave -0.07 (6 of 6 replicates).
For KVSQSVLYESGMKNSVA | NASTRES | QQYHRLPLS [GP_HC], the assay gave 1.16 (6 of 6 replicates).
For KSEQGVLYESENKNSVN | GASTRES | QQYHRLPLS [Rand], the assay gave 1.79 (1 of 6 replicates).
For KSSQSVTQEDRFKNSVA | WASTRES | QQYHRLPLS [Ctrl], the assay gave no signal (0 of 6 replicates).
For KLQLQPLFGAQAQSSIA | DVSEADM | QQYARLPLH [En_Gibbs], the assay gave 2.19 (6 of 6 replicates).
For HVSQSELYESRNKNSVA | NASTRES | QQYHRLPLS [GP_HC], the assay gave -0.14 (6 of 6 replicates).
For KSAQSVLYESRQKNSVA | GASTRTS | QQYHRLPLS [Ctrl], the assay gave 0.79 (6 of 6 replicates).
For KIELGLTRYNNGYSAVA | NETQKAN | QQYSRLPLV [En_Gibbs], the assay gave no signal (0 of 6 replicates).
For KAPQSVLYESRNHNSVA | WASLRES | QQYHRLPLS [Ctrl], the assay gave 0.82 (6 of 6 replicates).
For KLSMITGHMSTAKNNVA | EMVTREN | QQYNRLPLS [En_Gen], the assay gave 0.44 (6 of 6 replicates).
For KSSQSVLYESNNKNSVA | NASTRIS | QQYERLPLS [Ctrl], the assay gave 0.58 (6 of 6 replicates).
For TLYMGPTEARDSKHAIA | DMNERDR | QQYHRLPLV [En_Gibbs], the assay gave 0.67 (6 of 6 replicates).
For AMREDFYQGQVEMSAIA | DGEHLNM | QQYSHLPLS [En_Gibbs], the assay gave 0.59 (6 of 6 replicates).
For KSSQSVPYESRNNNSVA | WASTRES | QQCHRLPLS [Ctrl], the assay gave 2.37 (5 of 6 replicates).
For MLPESMPQQIDNQNPVA | GAQHTAV | QQYDRLPLT [En_Gibbs], the assay gave 0.89 (6 of 6 replicates).
For KLSQSELYEERNKNSVA | NASTRLS | QQYHRLPLS [GP_Gen], the assay gave -0.09 (6 of 6 replicates).
For KSSQSVLYMDRNKNSVA | WASTRES | QQMHRLPLS [Ctrl], the assay gave no signal (0 of 6 replicates).
For QLFFNDFQYDIESQNIA | QASLREV | QQYARLPLV [En_Gibbs], the assay gave 0.69 (6 of 6 replicates).
For KVSEFMRGLSRRKDSIA | DNNTRSN | QQYDRLPLS [En_Gen], the assay gave 0.43 (6 of 6 replicates).
For KFSQSVDYESRNKNSVA | DASTRES | QQYHRLPLS [GP_Gen], the assay gave -0.23 (6 of 6 replicates).
For KLYQSHLYESRNKNSVA | NASTRES | QQYHRLPLS [GP_Gen], the assay gave 0.08 (6 of 6 replicates).
For KSFQSWLYESRNKNSVA | GASTREQ | QQYHRLPLS [GP_HC], the assay gave -0.12 (6 of 6 replicates).
For HVSQSVLYESRNKNSVA | NASTRES | QQYHRLPLS [GP_Gen], the assay gave 0.81 (6 of 6 replicates).
For KLAQVTHSEHKNKNSIA | EMVTREK | QQYDRLPLS [En_HC], the assay gave 2.22 (6 of 6 replicates).
For NLNVSEDQWPSSKNAIA | QTTCRNL | QQYVHLPLS [En_Gibbs], the assay gave 0.72 (6 of 6 replicates).
For HLSDSDLYESRNKNSVA | NASTRES | QQYHRLPLN [GP_HC], the assay gave 2.00 (5 of 6 replicates).
For KLNLEEEWGTGQWQNIA | EREIAWQ | QQYQSLPLS [En_Gibbs], the assay gave 0.41 (4 of 6 replicates).
For KSSQSVLYESRNKNSVA | WASTRES | QQYHRLPKS [Ctrl], the assay gave no signal (0 of 6 replicates).
For KSSPSVLYESRNKNSVA | WASTRES | QQYHRLPLS [Ctrl], the assay gave 2.04 (4 of 6 replicates).
For KLSISHQVESINKSNVA | EMVTRES | QQYNRLPLS [En_HC], the assay gave 1.62 (6 of 6 replicates).
For QLSGPMVSESKKKNSVA | EFSTRGS | QQYHRLPLS [En_HC], the assay gave 1.21 (5 of 6 replicates).

From the list, the first 2 with no signal in any replicate:

The variant KSSQSVTQEDRFKNSVA | WASTRES | QQYHRLPLS [Ctrl] gave no signal (0 of 6 replicates).
The variant KIELGLTRYNNGYSAVA | NETQKAN | QQYSRLPLV [En_Gibbs] gave no signal (0 of 6 replicates).